Reference: BindingDB's records for doi:10.1016/j.chembiol.2010.06.011 (Leiden University, 2010)

The compounds below were run against T1, Disulfide bond formation protein B (Escherichia coli (strain K12), UniProt P0A6M2) (assay: Biochemical Assay). Details: pH 6.2; 30 °C.
T1 sequence (P0A6M2 whole entry): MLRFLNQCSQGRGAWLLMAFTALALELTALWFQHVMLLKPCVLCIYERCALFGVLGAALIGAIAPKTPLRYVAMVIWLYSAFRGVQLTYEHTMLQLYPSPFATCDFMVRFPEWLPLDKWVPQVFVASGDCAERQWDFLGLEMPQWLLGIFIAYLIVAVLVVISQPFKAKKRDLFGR
From the text: 13 fragments with strong inhibition in the single concentration point assay were chose from the micelle screen for further analysis using a biochemical assay.
`O=c1cc(O)c2ccc(Cl)cc2[nH]1` [Fragment 5] was tested, and the IC50 was 46 µM. `CC1(C)CC(=O)N(CC(=O)O)c2ccccc2S1` [2-(2,2-dimethyl-4-oxo-3H-1,5-benzothiazepin-5-yl)acetic acid] showed an IC50 of 168 µM. For `Cc1ccc2scc(CC(=O)O)c2c1` [Fragment 7], the IC50 was 115 µM. `Cc1cc(C(=O)O)c(C)n1Cc1ccccc1` showed an IC50 of 13 µM. `O=C(COc1ccccc1)Nc1ccc(O)cc1` [Fragment 3] showed an IC50 of 193 µM.
